Source: ChEMBL document CHEMBL3414476, “Novel multitarget-directed ligands (MTDLs) with acetylcholinesterase (AChE) inhibitory and serotonergic subtype 4 receptor (5-HT4R) agonist activities as potential agents against Alzheimer's disease: the design of donecopride” (J Med Chem, 2015)

The chains behind the UniProt entries cited, without tags or fusion partners. Residues count along the entry.
UniProt P22303, 32-614 limits assumed: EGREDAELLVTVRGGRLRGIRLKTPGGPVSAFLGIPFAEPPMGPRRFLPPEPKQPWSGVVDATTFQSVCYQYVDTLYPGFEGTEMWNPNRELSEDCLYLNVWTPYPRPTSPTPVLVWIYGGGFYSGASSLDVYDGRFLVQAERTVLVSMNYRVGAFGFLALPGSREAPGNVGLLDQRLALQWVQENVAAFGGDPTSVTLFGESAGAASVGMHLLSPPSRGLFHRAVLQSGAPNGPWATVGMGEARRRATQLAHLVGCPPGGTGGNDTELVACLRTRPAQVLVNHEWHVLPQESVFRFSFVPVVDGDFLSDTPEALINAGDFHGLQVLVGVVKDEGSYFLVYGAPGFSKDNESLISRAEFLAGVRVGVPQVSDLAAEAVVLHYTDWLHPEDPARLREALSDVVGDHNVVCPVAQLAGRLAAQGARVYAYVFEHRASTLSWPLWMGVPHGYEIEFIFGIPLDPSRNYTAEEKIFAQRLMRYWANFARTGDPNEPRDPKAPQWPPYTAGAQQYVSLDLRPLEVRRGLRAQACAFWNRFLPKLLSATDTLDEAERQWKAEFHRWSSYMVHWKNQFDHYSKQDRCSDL
UniProt P81908, whole entry, looked up: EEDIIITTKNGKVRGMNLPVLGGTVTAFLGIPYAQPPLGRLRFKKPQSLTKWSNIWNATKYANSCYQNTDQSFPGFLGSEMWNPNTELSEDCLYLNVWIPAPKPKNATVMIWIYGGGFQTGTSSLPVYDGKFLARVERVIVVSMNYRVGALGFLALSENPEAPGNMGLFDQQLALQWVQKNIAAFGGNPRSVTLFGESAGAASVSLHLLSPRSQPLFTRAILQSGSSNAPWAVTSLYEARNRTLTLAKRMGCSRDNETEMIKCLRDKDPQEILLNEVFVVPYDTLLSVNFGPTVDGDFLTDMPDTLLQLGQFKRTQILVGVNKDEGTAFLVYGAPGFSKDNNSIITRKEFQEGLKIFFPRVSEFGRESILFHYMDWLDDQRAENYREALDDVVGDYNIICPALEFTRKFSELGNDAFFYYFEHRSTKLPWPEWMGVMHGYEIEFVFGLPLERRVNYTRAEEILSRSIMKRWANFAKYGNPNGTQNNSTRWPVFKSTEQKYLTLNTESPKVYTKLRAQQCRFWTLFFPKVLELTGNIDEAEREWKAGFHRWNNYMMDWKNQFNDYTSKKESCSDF

What was measured:
Acetylcholinesterase = Acetylcholinesterase (Homo sapiens, UniProt P22303)
Cholinesterase = Cholinesterase (Equus caballus, UniProt P81908); experiment: Inhibition of equine serum BuChE pre-incubated for 5 mins before butyrylthiocholine iodide substrate by Ellman' method

Compound `COc1cc(N)c(Cl)cc1/C(CCC1CCN(CC2CCCCC2)CC1)=N/O` has an IC50 (Acetylcholinesterase) of 0.024 µM and an IC50 (Cholinesterase) of 7.08 µM.
